What was measured:
Sk-Br-3 cells [1] = assay: AnnexinV-PE-Cyan5 staining by flow cytometry, Sk-Br-3 cells; type: cell-based; settings: Sk-Br-3, GFP positive cells, 36 hours after transfection
Sk-Br-3 cells [2] = assay: FACS analysis of DNA content (propidium iodide) of EGFP-positive Sk-Br-3 cells; type: cell-based
Sk-Br-3 cells [3] = assay: PARP cleavage (p85) by Western Blot in Sk-Br-3 cells; type: cell-based
p53 R175H = target: T1, p53 R175H (Homo sapiens, UniProt P04637, R175H); assay: Co-immunoprecipitation of EGFP-TNV-PAs with p53 R175H in H1299 cells; type: binding; settings: H1299 cells co-transfected with p53 R175H and EGFP-TNV-PAs, IP anti-GFP
T1 construct: expression of full-length point mutants (hereinafter identified also as mut-p53 or mutant p53); expressed in transfected cells; host or cells: H1299 (p53-null)

p53 R273H = target: T2, p53 R273H (Homo sapiens, UniProt P04637, R273H); assay: Co-immunoprecipitation of EGFP-TNV-PAs with p53 R273H in H1299 cells; type: binding; settings: transient transfection
T2 construct: expression of full-length point mutants (hereinafter identified also as mut-p53 or mutant p53); expressed in transfected cells; host or cells: H1299 (p53-null)

MDA-MB-468 cells = assay: AnnexinV-PE-Cyan5 staining by flow cytometry, MDA-MB-468 cells; type: cell-based; settings: MDA-MB-468, GFP positive cells, 36 hours after transfection

DVADWESCGEYWCYRV [sA79]
AnnexinV positive cells (Sk-Br-3 cells [1]): approximately 30%
apoptotic response (sub-G1) compared with Etoposide treatment alone (Sk-Br-3 cells [2]): comparable to that observed upon drug treatment alone
sub-G1 peak compared with PRIMA-1 (Sk-Br-3 cells [2]; PRIMA-1 100 μM for 20 hours): comparable to that induced by PRIMA-1
cleaved p85 fragment of PARP-1 (Sk-Br-3 cells [3]): evident increase
binding to p53 R175H by co-immunoprecipitation (p53 R175H): A stronger interaction was also observed
binding to p53 R273H by co-immunoprecipitation (p53 R273H): A stronger interaction was also observed
AnnexinV positive cells (MDA-MB-468 cells): approximately 30%

— patent publication US8822420B2, “Peptides and aptamers thereof as specific modulators of mutant p53 function” (Universita Degli Studi di Trieste, priority 2008, dated 2014)
